## AlphaSeq binding of Ab-14 light chain variants to a spike HR2 peptide

Source: Li et al. 2023 (doi:10.1038/s41467-023-39022-2), MIT Lincoln Laboratory and A-Alpha Bio; data file from the FLAb repository.

Antigen: PDVDLGDISGINAS, a 14-residue peptide of the SARS-CoV-2 spike HR2 region.

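The starting antibody came from a phage panning campaign against this peptide. The variants were designed computationally from a first round of random CDR variants and then made and measured. Several design methods are mixed in this list. The assay is AlphaSeq: two haploid yeast populations carry antibody and antigen on their surface. Mating (16 h, 30 °C) was followed by selection of diploids and sequencing of their barcodes. The ratio of observed to expected reads was calibrated, replicate by replicate, on BCL2-family standards whose Kd was known from biolayer interferometry. The assay was run in six technical replicates.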

The variants keep the heavy chain, the linker and the frameworks of Ab-14 (scFv order VH, a 15-residue (Gly4Ser)3 linker, VL).
VH: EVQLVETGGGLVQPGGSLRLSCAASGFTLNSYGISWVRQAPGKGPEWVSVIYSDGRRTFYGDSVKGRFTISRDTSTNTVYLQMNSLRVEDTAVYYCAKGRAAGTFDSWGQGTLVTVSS
VL: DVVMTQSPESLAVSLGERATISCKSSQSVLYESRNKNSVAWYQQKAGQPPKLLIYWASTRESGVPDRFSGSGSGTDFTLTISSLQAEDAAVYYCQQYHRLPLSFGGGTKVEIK

The parent's light chain CDRs are KSSQSVLYESRNKNSVA, WASTRES, QQYHRLPLS; each variant's own CDRs replace them letter for letter.
Variants here have more than six changes.
Numbers give log10(Kd / nM), so 0 is 1 nM and 3 is 1 µM. Smaller is tighter.
An entry "nd" has no value in the source: the pair was not observed among the diploids in that replicate. This suggests poor binding but is not conclusive.
The parent sequence was in this pool as ten entries: three were never detected, three once, and four in most replicates, with averages from 0.34 to 2.37.
The authors averaged sequences with at least three values out of six and counted those with two or fewer as poor binders.
Nonspecific signal, from three strains lacking the peptide, appeared in 4% of pairings of all light chain designs, centred on 2.64 (5% of these signals below 1.59); values are not corrected for it. The control count says in how many pairings with the empty strains this scFv gave a signal.
A sequence measured in both rounds can read differently, since the two assays cover different ranges.

* NLSMELEDMGVKTGSIA, ENQLPEY, QQYARLPLM -> 1.20, 0.96, 0.85, 0.80, 0.74, 0.99 (controls 0 of 18)
* KFQNGLERGNQGYSAIA, DVTEKGA, QQYLQLPLM -> 0.58, 0.30, 0.40, 0.16, 0.25, 0.38 (controls 1 of 18)
* QLQLQPQFGANAQHSIA, DVSEKDM, QQYARLPLH -> 0.41, 0.40, 0.76, 0.60, 0.39, 0.76 (controls 2 of 18)
* SIYDATAMESRNKNPIA, DVSTRPS, QQYHRLPLS -> 0.46, 0.31, -0.01, 0.31, 0.25, 0.34 (controls 3 of 18)
* KVSQLDLGGSRNKNSVA, HAHTRLS, QQYHRLPLS -> 1.09, 1.10, 1.24, 1.39, 1.16, 1.43 (controls 3 of 18)
* NLVGRVPDNYTERNAIA, DMHCRAG, QQYSRLPLS -> 0.99, 1.18, 1.08, 1.04, 1.03, 1.02 (controls 7 of 18)
* GLSQDFYNERNMANQVA, DGNQLAN, QQYARLPLV -> 1.63, 1.41, 0.78, 1.29, 0.88, 1.37 (controls 1 of 18)
* MMSQVTGMGQRHRNNVA, QTSTRED, QQYDRLPLI -> 1.08, 2.11, 0.25, 0.79, 0.63, 1.23 (controls 2 of 18)
* SMAYFQGFYNQQEKAIA, ESATREQ, QQYFRLPLT -> 0.70, 0.25, 0.56, 0.35, 0.53, 0.63 (controls 0 of 18)
* RVTILSDPYMENRNAIA, QTSLRAH, QQYQMLPLT -> 0.85, 0.64, 0.25, 0.75, 0.31, 1.05 (controls 0 of 18)
* KVSGFMRGLTQRKDSIA, DNNTRGS, QQYDRLPLS -> 1.39, 1.25, 1.91, 1.74, 1.44, 1.66 (controls 0 of 18)
* KYEQQELTESRNKNSVA, NASTRES, QQYHQLPLS -> 0.48, 0.33, 0.38, -0.04, 0.19, 0.60 (controls 1 of 18)
* IVSQLMLWGWHAKNSIA, EAQTRLN, QQYDRLPLI -> nd, nd, 0.33, 0.30, 0.25, 1.79 (controls 0 of 18)
* KIGQQVTYESTHKNAIA, QMTTREE, QQYHRLPLS -> 0.31, 0.40, 0.38, 0.10, 0.23, 0.28 (controls 0 of 18)
* KLQQSWEYESRNSNNVA, QASTRCS, QQYHRLPLS -> 1.51, 1.12, 1.47, 2.73, 1.22, 2.22 (controls 0 of 18)
* KLQQSRLYMDRNANNVA, NASQRES, QQYHRLPLS -> 0.16, -0.07, -0.11, 0.03, -0.08, 0.26 (controls 4 of 18)
* TISQMTSLFSQSINNVA, EVSMREK, QQYDRLPLS -> nd, nd, nd, nd, nd, nd (controls 0 of 18)
* KLSISMLHQSINKHSVA, EVRTRES, QQYDRLPLS -> 1.20, 1.32, 1.90, 0.52, 1.63, 1.15 (controls 0 of 18)
* KLGQAVGYESRNKSRVA, DNSTRES, QQYDRLPLS -> nd, nd, 2.28, 1.89, nd, nd (controls 0 of 18)
* VFSGQWDGNTTENSAVA, NVDERML, QQYNRLPLM -> 2.97, 1.16, 1.19, 0.98, 1.11, 1.64 (controls 2 of 18)
* TLYGLSNSMSINKNNVA, EMTTREK, QQYDRLPLV -> 1.22, 0.94, 2.58, 1.08, 2.77, 1.47 (controls 0 of 18)
* ILSQSVLMGMHLKNSVA, QATMRFD, QQYHRLPLM -> nd, nd, nd, nd, nd, nd (controls 0 of 18)
* SMHPFDNAIGKGTNNIA, HVSVRAS, QQYARLPLV -> 0.95, 0.94, 1.03, 0.48, 0.82, 0.80 (controls 1 of 18)
* HITYGMYVAGRHSHSIA, QAETREK, QQYDRLPLS -> nd, 1.28, 1.34, 1.96, 1.40, 1.32 (controls 1 of 18)
* HLSMLSHVEMGTKNNVA, QMETRES, QQYDRLPLS -> 0.24, 0.34, 0.46, 0.00, 0.12, -0.05 (controls 0 of 18)
* KLYAATMLESHDKNSIA, DLSTRGN, QQYHRLPLS -> 0.52, 0.84, 0.48, 0.65, 0.57, 0.62 (controls 0 of 18)
* IVSQSVLGESRNMNSVA, QTSERNY, QQYDRLPLS -> 0.56, 0.59, 0.73, 0.77, 0.53, 0.61 (controls 2 of 18)
* NLGQKMSLETEQRNSIA, DMTVREY, QQYSRIPLI -> 1.06, 1.39, 0.74, 0.62, 0.40, 0.87 (controls 1 of 18)
* ALSGWEWAGNENINAVA, DRSALEW, QQYERLPLS -> 0.94, 1.13, 1.20, 1.20, 1.06, 1.31 (controls 0 of 18)
* KLFQSYEYESRWKNSVA, NASQREC, QQYHRLPLS -> 1.74, 2.08, 1.36, 1.11, 1.12, 1.29 (controls 0 of 18)
* KLSMVTEYESRNKNNVA, DLSTRGS, QDYHRLPLS -> -0.20, -0.21, -0.37, -0.34, -0.30, -0.21 (controls 0 of 18)
* KLSQQNLYESRMKNSVA, MASQREM, QQYHRLPLS -> 0.70, 0.08, 0.72, 0.38, 0.53, 0.46 (controls 2 of 18)
* SMSNLQMVPSVWKNSIA, DSEHVEE, QQYSRLPLT -> 0.63, 0.50, 0.16, 0.45, 0.46, 0.44 (controls 1 of 18)
* KSEDGVDDESRNDNQVA, NASTRLS, QQYHRLPLS -> 0.77, 0.35, 0.40, 0.23, 0.38, 0.67 (controls 0 of 18)
* KISMTTTFESRNKNSVA, ENSTRES, QSYHRLPLS -> nd, 2.47, 2.04, 1.53, 1.63, 1.59 (controls 1 of 18)
* KLYDMAALTMNNIRNVA, DNSTREE, QQYHRLPLS -> 0.82, 0.83, 1.04, 0.92, 1.37, 1.01 (controls 0 of 18)
* MISQLWNMGQFAINSVA, QASIRNE, QQYDRLPLM -> 0.84, 0.52, 1.30, 0.78, 1.06, 1.16 (controls 1 of 18)
* KISQMVRVGSTHSNSIA, EEQTRAK, QQYHRLPLS -> 0.61, 0.30, 0.57, -0.09, 0.53, 0.71 (controls 1 of 18)
* KVSPSWLYEDRNCNAVA, QASQRES, QQYHRLPLS -> 0.31, 0.39, 1.11, 0.04, 0.19, 0.49 (controls 0 of 18)
* IMSDSQERDASILRNIA, DQTTRAM, QQYARLPLS -> 0.55, -0.01, 0.32, 0.56, 0.10, 0.54 (controls 0 of 18)
* KITLPTGMWLNKANSIA, DASSSME, QQYYWLPLT -> 1.23, 0.69, nd, 2.01, 1.68, 1.39 (controls 0 of 18)
* MISQLYNMGSFAINSVA, QASVRNE, QQYDRLPLI -> nd, 0.25, 1.05, 0.33, 1.57, 1.18 (controls 1 of 18)
* MISQLMNMGQFAINSVA, QASLRCN, QQYFRLPLM -> nd, nd, nd, nd, 1.97, 2.07 (controls 0 of 18)
* KITMSQYNWTSNYQAVA, EQNMRAR, QSYYRLPFS -> nd, 3.45, 1.80, 2.70, 4.26, nd (controls 1 of 18)
* KISGYLNKESKAKNNVA, EMVNRMS, QQYDRLPLS -> -0.43, -0.58, -0.47, -0.51, -0.39, 0.03 (controls 0 of 18)
* LLSQSSGYEQRNKNSVA, DASTRLS, QAYHRLPLS -> 0.77, 0.69, 0.52, 0.66, 0.36, 0.52 (controls 0 of 18)
* KLQQADLYESRNKNSVA, QASTRSS, QCYHRLPLS -> 0.36, 0.28, 0.16, 0.34, 0.17, 0.40 (controls 0 of 18)
* KLQTLTNTANIGESSVA, DANVHVD, QQYFRLPLS -> 0.56, 0.48, 0.36, 0.48, 0.11, 0.52 (controls 0 of 18)
* KVSQWQLYESRMKNAVA, NASTRCD, QQYHRLPLS -> 0.94, 1.31, 0.89, 1.27, 1.57, 1.32 (controls 0 of 18)
* KVEQSNPYESRNAQSVA, NASQRES, QQYHRLPLS -> -0.02, 0.04, -0.17, -0.15, -0.14, -0.09 (controls 0 of 18)
* KLGGVTEYEMKNKNSVA, QMTTRES, QQYHRLPLS -> -0.12, 0.03, -0.16, -0.32, -0.02, -0.10 (controls 1 of 18)

The first 3 entries again:

| CDR-L1 | CDR-L2 | CDR-L3 | log10 Kd, replicates | empty controls |
|---|---|---|---|---|
| NLSMELEDMGVKTGSIA | ENQLPEY | QQYARLPLM | 1.20, 0.96, 0.85, 0.80, 0.74, 0.99 | 0/18 |
| KFQNGLERGNQGYSAIA | DVTEKGA | QQYLQLPLM | 0.58, 0.30, 0.40, 0.16, 0.25, 0.38 | 1/18 |
| QLQLQPQFGANAQHSIA | DVSEKDM | QQYARLPLH | 0.41, 0.40, 0.76, 0.60, 0.39, 0.76 | 2/18 |